# uPA generation = blocks generation of uPA at the cell surface; cell surface uPA generation assay, qHTS; Potency, µM (titrated, usually from 38.3 µM), for the others: top-dose activity change, negative = inhibition, most hits filed as inhibitors; hit rate 0.31% among 330,000; active means well fitted inhibition curve with a large enough effect; inconclusive means small, poorly fitted or top-dose-only effect; inactive means no such curve, though single readings can be large or run the other way; tested in mouse RAW 264.7 cells; further: potency means the concentration at half of the fitted maximal effect; on the % scale 0 is the no-effect control and ±100 the full control effect; nearly all actives have a fitted effect of over 55% in size
# miR-21 FLuc = miR-21 reporter, rising signal | 340,000 tested, under 10 active | AID 2288 | HeLa miR-21 FLuc reporter, luciferase, 48 h | Potency, µM (titrated, usually from 38.3 µM), for inactives: at the highest dose reporter change, positive = more light; active = well fitted rising curve with a large enough effect; inconclusive = small, poorly fitted or top-dose-only effect; inactive = no such curve, though single readings can be large or run the other way;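 further: % of control where 0% means no effect; miR-21 action dims this reporter so a rising signal means less miR-21 action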
#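 HeLa miR-21-FLuc reporter line, endogenous miR-21; 2000 cells/well in DMEM/10% FBS; compound titration up to ~40uM final, 48 h, 37 degree Celsius; luciferase detection reagent, 15 min lysis, CCD luminescence.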
# TDP1 inh = blocks human tyrosyl-DNA phosphodiesterase 1 | Q9NUW8 | recombinant TDP1, AlphaScreen DNA substrate cleavage | Potency, µM (highest dose often 130 µM), inactives show at the highest dose activity change, negative = inhibition, most hits filed as inhibitors | hit rate 0.28% among 350,000; further: potency means the concentration at half of the fitted maximal effect; on the % scale 0 is the no-effect control and ±100 the full control effect; nearly all actives have a fitted effect of over 40% in size
#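 AlphaScreen read-out: signal falls as enzyme removes the 3' tyrosine-FITC from a 5'-biotinylated DNA oligo (15 nM, 5 min, RT). Enzyme was E. coli-made recombinant Tdp1 at 1 nM, exposed to compound for 15 min beforehand; beads 10 ug/ml, 10 min.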
# DT40 TDP1 no CPT = qHTS for Inhibitors of human tyrosyl-DNA phosphodiesterase 1 (TDP1): qHTS in cells in absence of CPT | Potency, µM (highest dose often 46.2 µM), without a hit: top-dose activity change, negative = growth inhibition, most hits filed as inhibitors | hit rate 15% among 420,000 | DT40 Tdp1-/- hTDP1 cells, no CPT, ATP luminescence, 48 h; further: potency means the concentration at half of the fitted maximal effect; on the % scale 0 is the no-effect control and ±100 the full control effect; nearly all actives have a fitted effect of over 55% in size
#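 Compound effects on proliferation are scored in DT40 Tdp1-/-;hTDP1 cells in the absence of CPT. ATP levels (CellTiter-Glo luminescence) are recorded after a ≥48 hr, 37 °C incubation.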
# DT40 TDP1 CPT = growth inhibition of DT40 Tdp1-/-;hTDP1 cells with camptothecin (screen for TDP1 inhibitors). chicken DT40 Tdp1-/-;hTDP1 cells + 20 nM CPT, ATP luminescence, 48 h. Potency, µM (series often up to 46.2 µM), without a hit: top-dose activity change, negative = growth inhibition, actives largely listed as inhibitors. hit rate 12% among 420,000. AID 686979; further: potency means the concentration at half of the fitted maximal effect; on the % scale 0 is the no-effect control and ±100 the full control effect; nearly all actives have a fitted effect of over 55% in size
#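 Chicken DT40 Tdp1-/- cells complemented with human TDP1, 400 cells/well, exposed to compounds plus 20 nM camptothecin for at least 48 h at 37 C; viability read as ATP content by CellTiter-Glo luminescence.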
# The depositor's hits bear a star; ? = inconclusive; . = no result given; ! = not active in a repeat; [ ] = another dose, or the depositor's remark. Compounds with a hit are over-represented: about 16% of the library has one in this group of screens. Unless noted, the call rests on the fitted dose curve; in most records, active means well fitted curve in the direction sought with a large enough effect; inconclusive means small, poorly fitted or top-dose-only effect, or another doubt; inactive means no such curve, though single readings can be large; an effect the other way counts as inactive or inconclusive.
(1) COc1ccc(-c2oc(=O)c3cc(OC)c(OC)cc3c2C(F)(F)F)cc1
(2) COCc1ccc(-c2c(-c3ccsc3)oc(=O)c3cc(OC)c(OC)cc23)cc1
(3) CCn1c(SCC(=O)O)nnc1-c1ccc2[nH]c(C)c(C)c2c1
(4) CCOC(=O)C1(CC2CCCCO2)CCN(C(=O)NCc2ccccc2)CC1 (stereo not given)
(5) OCCNCc1ccc(-c2ccccc2)cc1

screen / no.,1,2,3,4,5
uPA generation,-2%,3%,-6%,-2%,-6%
TDP1 inh,0%,-1%,6%,.,-2%
DT40 TDP1 no CPT,-19%,21µM*,-16%,-17%,?
DT40 TDP1 CPT,-4%,?,-6%,-1%,-26%
miR-21 FLuc,.,.,-17%,-1%,-11%

(6) OCCCNCc1ccc(N(c2ccccc2)c2ccccc2)cc1
(7) CC(=O)OC1CC2CCC1(C)C2(C)C (stereo not given)
(8) CCCOC(c1ccccc1)(c1ccc(C(F)(F)F)cc1)C(Oc1nc(C)cc(C)n1)C(=O)O (stereo not given)
(9) Cc1cc(C)nc(OC(C(=O)O)C(OCCc2ccccc2)(c2ccc(F)cc2)c2ccc(F)cc2)n1 (stereo not given)
(10) Cc1ccc(S(=O)(=O)C2CCN(c3nc(-c4cccs4)nc4ccccc34)CC2)cc1

screen / no.,6,7,8,9,10
uPA generation,-3%,.,?,?,.
TDP1 inh,1%,8%,3%,5%,-1%
DT40 TDP1 no CPT,21µM*,.,21µM*,-4%,?
DT40 TDP1 CPT,16µM*,.,18µM*,?,11µM*
miR-21 FLuc,0%,.,25%,26%,.

(11) Cc1ccc(S(=O)(=O)N2CCN(c3nc(-c4cccs4)nc4ccccc34)CC2)cc1
(12) COc1cccc(S(=O)(=O)N2CCN(c3nc(-c4cccs4)nc4ccccc34)CC2)c1
(13) Cc1cccc(S(=O)(=O)N2CCN(c3nc(-c4cccs4)nc4ccccc34)CC2)c1
(14) Cc1ccc(S(=O)(=O)N2CCN(c3nc(-c4cccs4)nc4cccnc34)CC2)cc1
(15) COCCn1c(=NC(=O)c2ccc(S(=O)(=O)N3CCc4ccccc4C3)cc2)sc2cc(OC)ccc21

screen / no.,11,12,13,14,15
uPA generation,.,.,.,.,1%
TDP1 inh,-2%,0%,2%,.,-3%
DT40 TDP1 no CPT,11µM*,10µM*,-13%,?,?
DT40 TDP1 CPT,?,14µM*,-10%,10µM*,-23%
miR-21 FLuc,.,.,.,.,-3%

(16) COc1ccccc1[C@H]1C(c2ccc(F)cc2)=NN(c2ccccc2)[C@@H]1CO
(17) OC[C@@H]1[C@@H](c2ccc(Cl)cc2)C(c2ccccc2)=NN1c1ccccc1
(18) COc1ccccc1[C@H]1C(c2cccc(C)c2)=NN(c2ccccc2)[C@@H]1CO
(19) O=C1OCCN1C(=O)[C@H]1[C@H](c2ccccc2)C(c2ccccc2)=NN1c1ccccc1
(20) OC[C@@H]1[C@@H](c2ccc(Cl)cc2)C(c2cccc(Cl)c2)=NN1c1ccccc1

screen / no.,16,17,18,19,20
uPA generation,-16%,20%,?,-8%,?
TDP1 inh,-12%[56.1 µM],?,-15%[56.1 µM],-3%[56.1 µM],40µM*!
DT40 TDP1 no CPT,?,16µM*,?,-19%,13µM*
DT40 TDP1 CPT,18µM*,?,?,?,21µM*
miR-21 FLuc,.,.,.,.,.

# An excerpt from the list above, as a working copy:
(17) OC[C@@H]1[C@@H](c2ccc(Cl)cc2)C(c2ccccc2)=NN1c1ccccc1
(18) COc1ccccc1[C@H]1C(c2cccc(C)c2)=NN(c2ccccc2)[C@@H]1CO
(19) O=C1OCCN1C(=O)[C@H]1[C@H](c2ccccc2)C(c2ccccc2)=NN1c1ccccc1
(20) OC[C@@H]1[C@@H](c2ccc(Cl)cc2)C(c2cccc(Cl)c2)=NN1c1ccccc1

screen / no.,17,18,19,20
uPA generation,20%,?,-8%,?
TDP1 inh,?,-15%[56.1 µM],-3%[56.1 µM],40µM*!
DT40 TDP1 no CPT,16µM*,?,-19%,13µM*
DT40 TDP1 CPT,?,?,?,21µM*
miR-21 FLuc,.,.,.,.

# (cont.)
(21) OC[C@@H]1[C@@H](c2ccc(F)cc2)C(c2cccc(Cl)c2)=NN1c1ccccc1
(22) COc1ccc(-c2nn(CCC#N)cc2/C=N/O)cc1
(23) Cc1ccccc1NC(=O)C(=O)NCCc1c[nH]c2ccccc12
(24) C[C@@H]1C(c2ccccc2)=NN(c2ccccc2)[C@H]1C(=O)N1CCOC1=O
(25) C[C@@H]1C(c2cccc(Cl)c2)=NN(c2ccccc2)[C@H]1C(=O)N1CCOC1=O

screen / no.,21,22,23,24,25
uPA generation,0%,7%,2%,-11%,-10%
TDP1 inh,.,-2%,7%,-7%[56.1 µM],-3%[56.1 µM]
DT40 TDP1 no CPT,23µM*,-4%,-18%,?,?
DT40 TDP1 CPT,21µM*,8%,-3%,?,?
miR-21 FLuc,.,-2%,4%,.,.

(26) C[C@H]1C(c2cccc(Cl)c2)=NN(c2ccccc2)[C@@H]1CO
(27) C[C@H]1C(c2ccc(F)cc2)=NN(c2ccccc2)[C@@H]1CO
(28) Cc1ccn2c(c1)nc(=O)c1cc(S(=O)(=O)N3CCC(C)CC3)c(Cl)cc12
(29) CCN(CCc1ccccc1)c1ccc2c(c1)C1CC2CCN1Cc1ccccc1 (stereo not given)
(30) COc1ccc(-c2ccc3c(c2)C2CC3CCN2C(=O)OCc2ccccc2)cc1 (stereo not given)

screen / no.,26,27,28,29,30
uPA generation,.,-1%,.,.,-10%
TDP1 inh,40µM*,-14%[56.1 µM],5%,.,.
DT40 TDP1 no CPT,.,-2%,.,5.8µM*,?
DT40 TDP1 CPT,.,18µM*,.,6.5µM*,16µM*
miR-21 FLuc,.,.,-6%,.,.

(31) Cc1ccccc1C(=O)N1CCC2CC1c1cc(-c3ccc(F)cc3)ccc12 (stereo not given)
(32) O=C(OCc1ccccc1)N1CCC2CC1c1cc(-c3ccc(F)cc3)ccc12 (stereo not given)
(33) Clc1cccc(CN2CCC3CC2c2cc(N4CCCCC4)ccc23)c1 (stereo not given)
(34) O=C(OCc1ccccc1)N1CCC2CC1c1cc(/C=C/CCCSc3ncccn3)ccc12 (stereo not given)
(35) O=C(Nc1ccc(F)cc1)c1ccc(COc2ccccc2)cc1

screen / no.,31,32,33,34,35
uPA generation,-19%,29%,5%,.,-1%
TDP1 inh,.,.,.,.,5%
DT40 TDP1 no CPT,18µM*,?,?,23µM*,-10%
DT40 TDP1 CPT,?,?,-20%,?,?
miR-21 FLuc,.,.,.,.,-6%

(36) O=S(=O)(c1cccc2ccccc12)N1CCC2CC1c1cc(-c3ccc(F)cc3)ccc12 (stereo not given)
(37) COc1cccc(-c2ccc3c(c2)C2CC3CCN2C(=O)c2ccc(-c3ccccc3)cc2)c1 (stereo not given)
(38) O=C(c1cc(Cl)cc(Cl)c1)N1CCC2CC1c1cc(N3CCCCC3)ccc12 (stereo not given)
(39) COc1ccc(-c2ccc3c(c2)C2CC3CCN2S(=O)(=O)c2ccccc2C)cc1 (stereo not given)
(40) CC(=O)N(CCc1ccccc1)c1ccc2c(c1)C1CC2CCN1C(=O)OCc1ccccc1 (stereo not given)

screen / no.,36,37,38,39,40
uPA generation,11%,.,.,?,.
TDP1 inh,.,.,.,.,.
DT40 TDP1 no CPT,?,18µM*,21µM*,16µM*,6.5µM*
DT40 TDP1 CPT,?,?,?,?,8.2µM*
miR-21 FLuc,.,.,.,.,.

(41) Nc1c(-c2cccc(Cl)c2)cnc2c(-c3ccccc3)cnn12
(42) O=C(COC(=O)c1cccc(-n2cnnn2)c1)Nc1c(Cl)cccc1C(F)(F)F
(43) CCCCOCCCNS(=O)(=O)Cc1ccccc1
(44) COc1ccc(CCNC(=O)CC2SC(N)=NC2=O)cc1OC (stereo not given)
(45) CCN(CC(=O)Nc1c(F)cccc1F)C(=O)CCCc1c[nH]c2ccccc12
(46) O=C(OCc1ccccc1)N1CCC2CC1c1cc(N3CCNCC3)ccc12 (stereo not given)

screen / no.,41,42,43,44,45,46
uPA generation,3%,2%,2%,6%,7%,.
TDP1 inh,.,1%,-2%,0%,4%,.
DT40 TDP1 no CPT,-22%,-24%,-8%,-29%,4%,16µM*
DT40 TDP1 CPT,-1%,?,-28%,?,?,?
miR-21 FLuc,-73%,0%,-1%,0%,0%,.
